This is an account of results in PubChem BioAssay AID1511 (Johns Hopkins Ion Channel Center, 2009).

By UniProt entry, the sequences of proteins in these tests, tags left out.
UniProt Q12809, whole entry: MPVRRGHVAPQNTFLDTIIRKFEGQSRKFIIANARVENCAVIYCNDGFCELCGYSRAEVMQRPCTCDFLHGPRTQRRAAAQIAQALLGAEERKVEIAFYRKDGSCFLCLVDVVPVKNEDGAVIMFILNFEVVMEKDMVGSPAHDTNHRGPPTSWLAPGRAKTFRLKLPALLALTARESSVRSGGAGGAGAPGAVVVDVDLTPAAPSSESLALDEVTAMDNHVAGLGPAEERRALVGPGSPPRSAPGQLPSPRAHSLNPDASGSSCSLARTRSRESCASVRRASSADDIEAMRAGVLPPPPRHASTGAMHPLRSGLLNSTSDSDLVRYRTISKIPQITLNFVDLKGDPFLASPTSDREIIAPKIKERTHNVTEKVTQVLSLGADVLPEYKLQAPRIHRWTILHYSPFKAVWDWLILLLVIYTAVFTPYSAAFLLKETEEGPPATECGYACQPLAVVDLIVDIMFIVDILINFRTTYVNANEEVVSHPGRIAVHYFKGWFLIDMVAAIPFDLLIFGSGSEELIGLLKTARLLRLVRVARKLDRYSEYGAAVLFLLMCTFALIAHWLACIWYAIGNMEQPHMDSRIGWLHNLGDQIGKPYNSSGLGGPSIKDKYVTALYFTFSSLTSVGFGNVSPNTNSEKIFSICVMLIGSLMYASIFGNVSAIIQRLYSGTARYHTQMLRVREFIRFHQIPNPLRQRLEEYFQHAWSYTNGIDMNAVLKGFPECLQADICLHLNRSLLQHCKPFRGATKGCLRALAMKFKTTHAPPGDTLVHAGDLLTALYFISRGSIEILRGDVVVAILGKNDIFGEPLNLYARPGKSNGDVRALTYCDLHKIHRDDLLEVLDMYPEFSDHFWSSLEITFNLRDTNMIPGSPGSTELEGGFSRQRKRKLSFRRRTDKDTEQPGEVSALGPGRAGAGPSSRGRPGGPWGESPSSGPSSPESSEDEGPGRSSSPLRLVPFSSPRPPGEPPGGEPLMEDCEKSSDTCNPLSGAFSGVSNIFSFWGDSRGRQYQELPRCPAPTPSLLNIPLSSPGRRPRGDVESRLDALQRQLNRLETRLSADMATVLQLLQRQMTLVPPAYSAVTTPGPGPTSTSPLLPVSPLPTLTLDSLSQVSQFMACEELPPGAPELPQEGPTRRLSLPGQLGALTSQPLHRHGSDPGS

The structures appear in SMILES notation. The entries are a selection whose mix differs from that of the whole data set. The source made the active and inactive calls.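 How the source made its calls: active means activation above the mean of controls blocked by dofetilide plus 5 SD; inactive means the rest.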

The target in the experiment is Voltage-gated inwardly rectifying potassium channel KCNH2 (Homo sapiens) (UniProt Q12809). As to the kind of experiment: PubChem AID 1511.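 Further: thallium influx through hERG after potassium depolarization seen as dye fluorescence rise.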 The conditions noted are these: CHO-hERG, FluxOR thallium flux, dofetilide IC70 present; at 10 µM; stronger effect = higher value.
For the compound `O=C(NCC1(N2CCCCC2)CCCCC1)c1cccc(C(F)(F)F)c1`, the activation (rescue from dofetilide block), less the hit threshold was inactive: -8.42%.
On to `CN1CCN(CCOC(=O)C(O)(c2ccccc2)c2ccccc2)CC1`, for which the activation (rescue from dofetilide block), less the hit threshold was inactive: -8.34%.
In the case of `COc1ccc(NC2CCN(C(=O)OC(C)(C)C)CC2)cc1`, the activation (rescue from dofetilide block), less the hit threshold was inactive: -2.76%.
To `COc1cc(C(=O)NCC2(N3CCCCC3)CCCCC2)ccc1OC(F)F` belongs inactive: -5.44%.
`O=C(NCC1(N2CCOCC2)CCCCC1)c1cc(=O)[nH]c2ccccc12`: the activation (rescue from dofetilide block), less the hit threshold is inactive: -8.25%.
As for `O=C(NCC1(N2CCCCC2)CCCCC1)c1ccc(OC(F)F)cc1`, the activation (rescue from dofetilide block), less the hit threshold is inactive: -8.85%.
As for `O=C(NCC1(N2CCCCC2)CCCCC1)c1cccc([N+](=O)[O-])c1`, the activation (rescue from dofetilide block), less the hit threshold was inactive: -19%.
As to `CCN1CCC(Nc2ccc(Cl)cc2)CC1`, the activation (rescue from dofetilide block), less the hit threshold was inactive: -6.93%.
`N#CC1(Nc2ccccc2)CCN(CCc2ccccc2)CC1`: the activation (rescue from dofetilide block), less the hit threshold was inactive: -3.57%.
To `CN1CCC(Nc2cccc(F)c2)CC1` belongs inactive: -3.84%; to `CCCOc1ccc(C(=O)NCC2(N(C)C)CCCCC2)cc1OC`, inactive: -5.93%; to `COc1ccc(CN(CCCl)CCCl)cc1Cl`, inactive: -9.95%.
Turning to `CN(C)c1cccc(C(=O)NCC2(N3CCCCC3)CCCCC2)c1`, the activation (rescue from dofetilide block), less the hit threshold is inactive: -8.43%.
Take `CC(C)c1ccc(NC2CCN(C(=O)OC(C)(C)C)CC2)cc1`: the activation (rescue from dofetilide block), less the hit threshold was inactive: -9.57%.
For `COc1cc(OC)c(C(=O)NCC2(N(C)C)CCCCC2)cc1OC`, the activation (rescue from dofetilide block), less the hit threshold was inactive: -7.03%.
Take `O=C(NCC1(N2CCOCC2)CCCCC1)c1cc2ccccc2o1`: the activation (rescue from dofetilide block), less the hit threshold is inactive: -9.69%.
To `O=C(NCC1(N2CCCCC2)CCCCC1)c1ccc(Cl)nc1` belongs inactive: -10.8%; to `Cc1cc(C)cc(N(C(=O)c2ccccc2)C2CCN(C(=O)OC(C)(C)C)CC2)c1`, inactive: -12.8%.
With `CCOC(=O)N1CCC(Nc2ccc(OC)cc2)CC1`, the activation (rescue from dofetilide block), less the hit threshold is active: 4.85%.
For `N#CC1(Nc2ccccc2)CCN(Cc2ccccc2)CC1`, the activation (rescue from dofetilide block), less the hit threshold was inactive: -3.63%.
Take `O=C(OC1CN2CCC1CC2)C1c2ccccc2Oc2ccccc21` (stereo not drawn): the activation (rescue from dofetilide block), less the hit threshold was inactive: -4.59%.
To `O=C(NCC1(N2CCCCC2)CCCCC1)c1ccc(=O)[nH]c1` belongs inactive: -13.1%; to `O=C(NCC1(N2CCCCC2)CCCCC1)c1cccs1`, inactive: -7.07%; to `COc1ccc(C(=O)NCC2(N3CCCCC3)CCCCC2)cc1`, inactive: -3.05%.
For `CC(C)(C)OC(=O)N1CCC(N(C(=O)c2ccccc2)c2ccc(F)cc2)CC1`, the activation (rescue from dofetilide block), less the hit threshold was inactive: -10.9%.
Take `COc1ccc(C(=O)NCC2(N3CCCCC3)CCCCC2)c(OC)c1OC`: the activation (rescue from dofetilide block), less the hit threshold is inactive: -7.71%.
Regarding `CSc1ccccc1C(=O)NCC1(N2CCCCC2)CCCCC1`, the activation (rescue from dofetilide block), less the hit threshold was inactive: -5.3%.
In the case of `CCOC(=O)N1CCC(Nc2cccc(C)c2)CC1`, the activation (rescue from dofetilide block), less the hit threshold was inactive: -7.8%.
